pIC50: −log10 of the molar value.
What was measured:
[1] = biological target: PDE4B: catalytic domain of human PDE4B from S152-S528 (Homo sapiens, UniProt Q07343); assay: PDE4 IC50 determination by Scintillation Proximity Assay (SPA), PDE4B catalytic domain; details: read-out: PDE4B IC50, [3H]cAMP SPA, 30 min at 30° C.
[2] = biological target: PDE4D5: full-length human PDE4D5 isozyme (Homo sapiens, UniProt Q08499); assay: PDE4 IC50 determination by Scintillation Proximity Assay (SPA), full-length PDE4D5; details: read-out: PDE4D5 IC50, cell lysate, [3H]cAMP SPA
[3] = biological target: PDE4B2: full-length human PDE4B2 isozyme (Homo sapiens, UniProt Q07343); assay: PDE4 IC50 determination by Scintillation Proximity Assay (SPA), full-length PDE4B2; details: read-out: PDE4B2 IC50, cell lysate, [3H]cAMP SPA

Protein sequences, listed by entry. Tags and fused reporters are not part of them. Chains listed by the source or under a name are the forms on record and can include a tag or linker. Residues count along the entry.
UniProt Q07343, 324-700 limits assumed: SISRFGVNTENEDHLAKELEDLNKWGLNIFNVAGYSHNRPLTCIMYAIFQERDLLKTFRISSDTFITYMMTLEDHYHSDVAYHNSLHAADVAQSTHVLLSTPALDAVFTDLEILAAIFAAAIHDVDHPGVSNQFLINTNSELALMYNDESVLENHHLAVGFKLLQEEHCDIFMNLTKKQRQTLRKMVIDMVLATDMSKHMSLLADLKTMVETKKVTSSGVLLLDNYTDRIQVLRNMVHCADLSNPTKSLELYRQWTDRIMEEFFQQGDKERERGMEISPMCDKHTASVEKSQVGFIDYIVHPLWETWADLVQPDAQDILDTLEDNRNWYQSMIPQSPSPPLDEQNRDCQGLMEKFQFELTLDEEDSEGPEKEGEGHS
UniProt Q07343, 1-564 with tags or gaps isoform 2: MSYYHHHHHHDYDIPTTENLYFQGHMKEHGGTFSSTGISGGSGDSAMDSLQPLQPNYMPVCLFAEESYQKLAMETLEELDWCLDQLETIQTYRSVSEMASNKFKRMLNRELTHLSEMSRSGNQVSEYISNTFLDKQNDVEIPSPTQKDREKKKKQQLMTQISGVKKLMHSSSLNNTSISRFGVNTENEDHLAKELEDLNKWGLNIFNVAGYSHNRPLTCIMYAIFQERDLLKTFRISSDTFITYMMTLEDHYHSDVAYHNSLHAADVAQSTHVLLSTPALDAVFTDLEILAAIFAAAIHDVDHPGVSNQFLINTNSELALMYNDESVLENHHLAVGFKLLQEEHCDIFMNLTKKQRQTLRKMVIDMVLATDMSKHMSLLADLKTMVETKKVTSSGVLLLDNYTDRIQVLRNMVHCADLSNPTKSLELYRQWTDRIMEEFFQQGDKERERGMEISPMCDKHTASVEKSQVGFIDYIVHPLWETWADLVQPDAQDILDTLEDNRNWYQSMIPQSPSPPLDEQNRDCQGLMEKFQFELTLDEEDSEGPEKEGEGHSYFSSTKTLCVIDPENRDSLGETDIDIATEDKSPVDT
UniProt Q08499, 1-745 with tags or gaps isoform 6: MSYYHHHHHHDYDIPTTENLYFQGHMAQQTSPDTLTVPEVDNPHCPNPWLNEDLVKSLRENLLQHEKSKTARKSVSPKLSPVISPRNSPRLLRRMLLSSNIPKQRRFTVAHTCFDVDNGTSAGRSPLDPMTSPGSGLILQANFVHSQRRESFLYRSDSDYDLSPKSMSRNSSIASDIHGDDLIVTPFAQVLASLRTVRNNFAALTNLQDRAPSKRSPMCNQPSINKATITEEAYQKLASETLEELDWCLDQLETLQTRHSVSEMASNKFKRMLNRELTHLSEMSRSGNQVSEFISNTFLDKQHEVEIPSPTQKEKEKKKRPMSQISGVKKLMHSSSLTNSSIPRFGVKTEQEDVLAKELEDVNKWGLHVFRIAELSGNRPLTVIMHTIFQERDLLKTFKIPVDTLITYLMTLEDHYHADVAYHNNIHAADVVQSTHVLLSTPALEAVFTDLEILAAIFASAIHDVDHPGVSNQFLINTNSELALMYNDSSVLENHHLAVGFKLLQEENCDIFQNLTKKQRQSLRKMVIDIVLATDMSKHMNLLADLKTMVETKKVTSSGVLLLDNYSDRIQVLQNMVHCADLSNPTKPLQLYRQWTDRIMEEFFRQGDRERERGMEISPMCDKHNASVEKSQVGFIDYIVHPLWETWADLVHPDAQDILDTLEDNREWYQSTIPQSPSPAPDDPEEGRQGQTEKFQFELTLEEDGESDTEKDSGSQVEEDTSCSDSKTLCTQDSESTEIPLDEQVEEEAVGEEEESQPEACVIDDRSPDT

Measured: pIC50

COc1ccc(-c2cn(S(=O)(=O)c3cccc4cc(C)cnc34)c3ccccc23)cc1OC
> 5.00: all assays above

Reference: patent US7605168B2 (Plexxikon, Inc., priority 2004, dated 2009)
